Data reported in publication PMC7788105 (iScience, 2020).

Protein sequences, listed by entry. Tags and fused reporters are not part of them. Residues count along the entry.
UniProt Q15116, 25-170: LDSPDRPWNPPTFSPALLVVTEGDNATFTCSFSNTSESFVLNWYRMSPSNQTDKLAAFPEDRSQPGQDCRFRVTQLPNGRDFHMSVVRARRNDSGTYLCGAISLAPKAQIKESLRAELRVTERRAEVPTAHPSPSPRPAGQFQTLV

Target: T1, human PD-1 (programmed cell death receptor 1) (human, UniProt Q15116 25-170, 15N-labeled in the AIDA-NMR assay; covalently labeled with a fluorophore in the MST assay)
T1 construct: Programmed cell death receptor 1 (PD-1, CD279), human; In the cell-based ICB assays hPD-1 stands on Jurkat effector cells; also called hPD-1; CD279
Test: MST; hPD-1 covalently labeled with a fluorophore, incubated with increasing concentrations of unlabeled hPD-L1 or mPD-L1; two independent dilution series, KD model
Settings: both partners purified

B1: human PD-L1 (ligand)
chain: FTVTVPKDLYVVEYGSNMTIECKFPVEKQLDLAALIVYWEMEDKNIIQFVHGEEDLKVQHSSYRQRARLLKDQLSLGNAALQITDVKLQDAGVYRCMISYGGADYKRITVKVNAPY
modifications: fluorescently labeled in the MST assay with antibodies
notes: PD-L1 (CD274, B7-H1), human; In the h/hICB assay hPD-L1 stands on CHO/TCRAct/PD-L1 cells; also called hPD-L1; CD274
- Kd: 11.9 ± 2.8 µM
